Biological target: bombesin receptor subtype 3 (BB3-R) (human) (UniProt P32247)
Assay: competition with 125I-universal ligand, receptor autoradiography on human tumour tissue

By UniProt entry, the sequences of proteins in these tests, tags left out. Where a name states a change or a piece, a line headed by the entry shows the natural chain unless it says otherwise.
UniProt P32247: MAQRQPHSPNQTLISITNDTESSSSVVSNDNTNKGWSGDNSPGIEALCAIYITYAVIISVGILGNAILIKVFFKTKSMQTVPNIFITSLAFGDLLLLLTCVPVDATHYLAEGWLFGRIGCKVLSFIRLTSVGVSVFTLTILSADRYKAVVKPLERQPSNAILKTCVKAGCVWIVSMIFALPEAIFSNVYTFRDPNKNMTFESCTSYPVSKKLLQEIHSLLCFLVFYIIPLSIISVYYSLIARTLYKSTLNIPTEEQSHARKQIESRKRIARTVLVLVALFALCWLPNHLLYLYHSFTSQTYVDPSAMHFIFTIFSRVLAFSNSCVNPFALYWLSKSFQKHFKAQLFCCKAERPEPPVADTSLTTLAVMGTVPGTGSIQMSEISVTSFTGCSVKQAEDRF

IC50: 1.1 nM
Substance: Universal ligand ([DTyr^6, βAla^11, Phe^13, Nle^14]-BBN(6-14)) (peptide)
